The source made the active and inactive calls. The rule behind the calls is not given here.
Assays:
[1] = biological target: Acetylcholinesterase (Homo sapiens) (UniProt P22303); assay: Reactivation of POX-inhibited human recombinant AChE assessed as bimolecular rate constant using ATC as substrate incubated for 60 mins followed by substrate addition by Ellman's method based spectrophotometry
[2] = biological target: Acetylcholinesterase (Homo sapiens) (UniProt P22303); assay: Reactivation of POX-inhibited human recombinant AChE assessed as reactivation rate constant using ATC as substrate incubated for 60 mins followed by substrate addition by Ellman's method based spectrophotometry
[3] = test system: Rattus norvegicus; assay: In vivo reactivation of POX-inhibited AChE in rat brain at 10 mg/kg, iv administered at 1 hr post POX poisoning and measured after 1 hr using acetylthiocholine iodide substrate in presence of BChE inhibitor iso-OMPA by Ellman's method
[4] = test system: Rattus norvegicus; assay: Neuroprotection against POX-induced memory impairment in Wistar rat assessed as increase in escape latency at 10 mg/kg, ip administered 15 mins before POX poisoning measured after 2 days during 2 to 4 days of testing by morris water maze hidden platform test
[5] = test system: Rattus norvegicus; assay: Neuroprotection against POX-induced neuronal death in Wistar rat assessed as reduction in brain dentate gyrus damage at 10 mg/kg, ip administered 15 mins before POX poisoning and observed after 2 days by fluoro-jade-B staining based confocal laser scanning microscopy
[6] = test system: Rattus norvegicus; assay: Neuroprotection against POX-induced memory impairment in Wistar rat assessed as decrease in quadrant percentage time at 10 mg/kg, ip administered 15 mins before POX poisoning measured after 2 days and on day 5 of training session by morris water maze spatial probe test
[7] = test system: Rattus norvegicus; assay: Neuroprotection against POX-induced memory impairment in Wistar rat assessed as decrease in total distance to platform at 10 mg/kg, ip administered 15 mins before POX poisoning and measured after 2 days during 2 to 4 days of testing by morris water maze hidden platform test
[8] = test system: Rattus norvegicus; assay: Neuroprotection against POX-induced memory impairment in Wistar rat assessed as decrease in number of platform area crossing at 10 mg/kg, ip administered 15 mins before POX poisoning measured after 2 days and on day 5 of training session by morris water maze spatial probe test
[9] = biological target: Acetylcholinesterase (Homo sapiens) (UniProt P22303); assay: Reactivation of POX-inhibited human recombinant AChE in at 10 mM using ATC as substrate incubated for 60 mins followed by substrate addition by Ellman's method based spectrophotometry relative to control; set-up: scale not given: the % may be the effect or the level left
[10] = biological target: Cholinesterase (Homo sapiens) (UniProt P06276); assay: Reactivation of POX-inhibited BChE in human plasma at 100 mM using BTC as substrate incubated for 60 mins followed by substrate addition by Ellman's method based spectrophotometry relative to control; set-up: scale not given: the % may be the effect or the level left
[11] = biological target: Cholinesterase (Homo sapiens) (UniProt P06276); assay: Inhibition of BChE in human plasma at maximal concentration using BTC as substrate preincubated for 10 mins followed by substrate addition measured over 2 mins by Ellman's method based spectrophotometry
[12] = biological target: Acetylcholinesterase (Homo sapiens) (UniProt P22303); assay: Inhibition of human recombinant AChE at maximal concentration using ATC as substrate preincubated for 10 mins followed by substrate addition measured over 2 mins by Ellman's method based spectrophotometry
[13] = test system: Rattus norvegicus; assay: Protection against POX-induced mortality in Wistar rat assessed as increase in survival rate at 100 mg/kg, iv administered 10 mins before POX poisoning
[14] = test system: Mus musculus; assay: Protection against POX-induced mortality in CD1 mouse assessed as increase in animal survival rate at 300 mg/kg, iv administered 2 mins after challenge with POX at concentration of 2 X LD50
[15] = biological target: Cholinesterase (Homo sapiens) (UniProt P06276); assay: Reactivation of POX-inhibited BChE in human plasma at 10 mM using BTC as substrate incubated for 60 mins followed by substrate addition by Ellman's method based spectrophotometry relative to control; set-up: scale not given: the % may be the effect or the level left
[16] = test system: Rattus norvegicus; assay: Neuroprotection against POX-induced neuronal death in Wistar rat assessed as reduction in brain dentate gyrus damage at 100 mg/kg, iv administered 10 mins before POX poisoning and observed after 2 days by fluoro-jade-B staining based confocal laser scanning microscopy
[17] = test system: Rattus norvegicus; assay: Neuroprotection against POX-induced memory impairment in Wistar rat assessed as decrease in quadrant percentage time at 100 mg/kg, iv administered 15 mins before POX poisoning respectively and measured after 2 days and on day 5 of training session by morris water maze spatial probe test
[18] = test system: Rattus norvegicus; assay: Neuroprotection against POX-induced neuronal death in Wistar rat assessed as reduction in brain dentate gyrus damage at 100 mg/kg, iv administered 15 mins before POX poisoning and measured after 2 days in presence of 2-PAM by fluoro-jade-B staining based confocal laser scanning microscopy
[19] = test system: Rattus norvegicus; assay: Neuroprotection against POX-induced memory impairment in Wistar rat assessed as total distance to platform at 100 mg/kg, iv compound administered 15 mins before POX poisoning and measured after 2 days and on day 2 to 4 of training session in presence of 2-PAM by morris water maze hidden platform …
[20] = test system: Rattus norvegicus; assay: Neuroprotection against POX-induced memory impairment in Wistar rat assessed as decrease in number of platform area crossing at 100 mg/kg, iv administered 15 mins before POX poisoning and measured after 2 days and on day 5 of training session in presence of 2-PAM by morris water maze spatial probe …
[21] = biological target: Cholinesterase (Homo sapiens) (UniProt P06276); assay: Reactivation of POX-inhibited BChE in human plasma at 2 mM using BTC as substrate incubated for 60 mins followed by substrate addition by Ellman's method based spectrophotometry relative to control; set-up: scale not given: the % may be the effect or the level left
[22] = biological target: Acetylcholinesterase (Homo sapiens) (UniProt P22303); assay: Reactivation of POX-inhibited human recombinant AChE at 2 mM using ATC as substrate incubated for 60 mins followed by substrate addition by Ellman's method based spectrophotometry relative to control; set-up: scale not given: the % may be the effect or the level left
[23] = biological target: Cholinesterase (Homo sapiens) (UniProt P06276); assay: Reactivation of POX-inhibited BChE in human plasma at 8 mM using BTC as substrate incubated for 60 mins followed by substrate addition by Ellman's method based spectrophotometry relative to control; set-up: scale not given: the % may be the effect or the level left
[24] = biological target: Acetylcholinesterase (Homo sapiens) (UniProt P22303); assay: Reactivation of POX-inhibited human recombinant AChE at 8 mM using ATC as substrate incubated for 60 mins followed by substrate addition by Ellman's method based spectrophotometry relative to control; set-up: scale not given: the % may be the effect or the level left
[25] = biological target: Cholinesterase (Homo sapiens) (UniProt P06276); assay: Reactivation of POX-inhibited BChE in human plasma at 0.8 mM using BTC as substrate incubated for 60 mins followed by substrate addition by Ellman's method based spectrophotometry relative to control; set-up: scale not given: the % may be the effect or the level left
[26] = biological target: Acetylcholinesterase (Homo sapiens) (UniProt P22303); assay: Reactivation of POX-inhibited human recombinant AChE at 0.8 mM using ATC as substrate incubated for 60 mins followed by substrate addition by Ellman's method based spectrophotometry relative to control; set-up: scale not given: the % may be the effect or the level left

By UniProt entry, the sequences of proteins in these tests, tags left out. Where a name states a change or a piece, a line headed by the entry shows the natural chain unless it says otherwise.
UniProt P22303: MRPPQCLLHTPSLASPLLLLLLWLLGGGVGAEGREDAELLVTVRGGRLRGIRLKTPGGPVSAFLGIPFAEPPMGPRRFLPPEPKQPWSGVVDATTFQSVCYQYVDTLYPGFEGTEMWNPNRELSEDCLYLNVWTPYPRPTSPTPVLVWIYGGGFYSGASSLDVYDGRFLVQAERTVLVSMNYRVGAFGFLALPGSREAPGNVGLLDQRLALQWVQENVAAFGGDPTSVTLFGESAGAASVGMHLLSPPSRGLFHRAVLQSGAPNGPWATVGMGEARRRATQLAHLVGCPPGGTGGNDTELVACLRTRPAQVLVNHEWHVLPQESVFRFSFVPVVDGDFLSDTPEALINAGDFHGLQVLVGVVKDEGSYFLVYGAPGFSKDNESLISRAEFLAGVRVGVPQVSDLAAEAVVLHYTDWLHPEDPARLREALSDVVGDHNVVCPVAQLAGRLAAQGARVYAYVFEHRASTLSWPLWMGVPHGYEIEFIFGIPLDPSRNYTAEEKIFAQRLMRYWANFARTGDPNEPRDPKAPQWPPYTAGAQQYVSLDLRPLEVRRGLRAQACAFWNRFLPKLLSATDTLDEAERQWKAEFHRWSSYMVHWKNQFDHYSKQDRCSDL
UniProt P06276, whole entry, looked up: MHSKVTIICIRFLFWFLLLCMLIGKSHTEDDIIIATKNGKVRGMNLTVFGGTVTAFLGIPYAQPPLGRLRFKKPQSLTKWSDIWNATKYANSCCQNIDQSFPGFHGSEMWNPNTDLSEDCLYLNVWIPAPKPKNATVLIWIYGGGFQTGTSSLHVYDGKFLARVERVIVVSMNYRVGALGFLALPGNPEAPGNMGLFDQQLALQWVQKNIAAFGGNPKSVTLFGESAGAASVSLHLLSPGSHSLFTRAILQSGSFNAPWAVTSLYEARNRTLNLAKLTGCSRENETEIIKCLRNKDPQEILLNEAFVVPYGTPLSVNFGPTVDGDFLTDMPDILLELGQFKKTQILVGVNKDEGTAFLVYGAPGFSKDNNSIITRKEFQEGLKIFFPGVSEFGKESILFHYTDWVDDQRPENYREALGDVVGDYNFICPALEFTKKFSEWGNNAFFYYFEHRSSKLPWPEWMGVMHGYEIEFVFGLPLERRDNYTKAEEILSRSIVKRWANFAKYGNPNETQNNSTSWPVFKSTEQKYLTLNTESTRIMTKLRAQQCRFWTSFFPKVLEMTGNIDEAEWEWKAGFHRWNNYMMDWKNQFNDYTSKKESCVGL

C[n+]1ccccc1C=NO
K [1]: 9.63 M⁻¹ s⁻¹ | Kr [2]: 0.081 min⁻¹ | Activity [3]: inactive | Activity [4]: Active | Activity [5]: inactive | Activity [6]: Active | Activity [7]: Active | Activity [8]: Active

CCCCCn1ncnc1C(=O)NO
Activity [9]: 5.4%

Cc1cc(=O)n(C)c(=O)n1CCCCn1cnc(C(=O)NO)n1
Activity [10]: 4.3% | inhibition [11]: inactive | inhibition [12]: inactive | K [1]: 0.0135 M⁻¹ s⁻¹ | Kr [2]: 0.049 min⁻¹

Cc1cc(=O)n(C)c(=O)n1CCCCCCn1cnc(C(=O)NO)n1
Activity [10]: 9.8% | Activity [9]: 7.3%

Cc1cc(=O)n(C)c(=O)n1CCCCCn1cnc(C(=O)NO)n1
Activity [13]: Active | Activity [14]: Active | Activity [15]: 28.8% | inhibition [11]: inactive | inhibition [12]: inactive | K [1]: 0.333 M⁻¹ s⁻¹ | Kr [2]: 0.11 min⁻¹ | Activity [16]: Active | Activity [17]: Active | Activity [18]: Active | Activity [19]: Active | Activity [20]: Active

Cc1cc(=O)n(C)c(=O)n1CCCCCCn1ccnc1/C=N/O
Activity [21]: 17% | Activity [22]: 10.6%

Cc1cc(=O)n(C)c(=O)n1CCCn1ccnc1/C=N/O
Activity [23]: 11.4% | Activity [24]: 5.4%

Cc1cc(=O)n(C)c(=O)n1CCCCn1ccnc1/C=N/O
Activity [25]: 13.2% | Activity [26]: 16.8%
